How the values were obtained:
[1] = biological target: Cyclin-dependent kinase 2 (Homo sapiens, UniProt P24941)
[2] = biological target: Cyclin-dependent kinase 1/cyclin B1 (Homo sapiens, UniProt P06493)

Protein sequences, listed by entry. Tags and fused reporters are not part of them.
UniProt P06493, whole entry: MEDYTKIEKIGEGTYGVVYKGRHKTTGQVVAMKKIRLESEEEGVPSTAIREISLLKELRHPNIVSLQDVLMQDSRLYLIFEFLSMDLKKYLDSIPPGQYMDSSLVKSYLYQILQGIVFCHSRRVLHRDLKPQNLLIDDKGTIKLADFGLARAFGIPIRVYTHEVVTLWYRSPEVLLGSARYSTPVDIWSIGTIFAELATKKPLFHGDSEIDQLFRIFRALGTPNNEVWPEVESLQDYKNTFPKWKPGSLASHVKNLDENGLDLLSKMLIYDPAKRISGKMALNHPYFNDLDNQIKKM

| Structure (SMILES) | IC50 [1] | IC50 [2] |
| --- | --- | --- |
| CC(C)Nc1cc(Cl)nc2c(C#N)cnn12 | 1500 nM | – |
| O=C(Nc1ccccc1)c1cc[nH]n1 | 97000 nM | – |
| NS(=O)(=O)c1ccc(NC(=O)c2n[nH]c3ccccc23)cc1 | 660 nM | – |
| O=C(NC1CCNCC1)c1n[nH]cc1NC(=O)c1c(F)cccc1F | – | 980 nM |

From ChEMBL document CHEMBL1156543, “Identification of N-(4-piperidinyl)-4-(2,6-dichlorobenzoylamino)-1H-pyrazole-3-carboxamide (AT7519), a novel cyclin dependent kinase inhibitor using fragment-based X-ray crystallography and structure based drug design” (J Med Chem, 2008)
